Reference: patent US20140193338A1, “COMPOUNDS FOR USE IN IMAGING, DIAGNOSING AND/OR TREATMENT OF DISEASES OF THE CENTRAL NERVOUS SYSTEM” (PIRAMAL IMAGING SA, priority 2011, published 2014)

The chains behind the UniProt entries cited, without tags or fusion partners.
UniProt P27338, whole entry: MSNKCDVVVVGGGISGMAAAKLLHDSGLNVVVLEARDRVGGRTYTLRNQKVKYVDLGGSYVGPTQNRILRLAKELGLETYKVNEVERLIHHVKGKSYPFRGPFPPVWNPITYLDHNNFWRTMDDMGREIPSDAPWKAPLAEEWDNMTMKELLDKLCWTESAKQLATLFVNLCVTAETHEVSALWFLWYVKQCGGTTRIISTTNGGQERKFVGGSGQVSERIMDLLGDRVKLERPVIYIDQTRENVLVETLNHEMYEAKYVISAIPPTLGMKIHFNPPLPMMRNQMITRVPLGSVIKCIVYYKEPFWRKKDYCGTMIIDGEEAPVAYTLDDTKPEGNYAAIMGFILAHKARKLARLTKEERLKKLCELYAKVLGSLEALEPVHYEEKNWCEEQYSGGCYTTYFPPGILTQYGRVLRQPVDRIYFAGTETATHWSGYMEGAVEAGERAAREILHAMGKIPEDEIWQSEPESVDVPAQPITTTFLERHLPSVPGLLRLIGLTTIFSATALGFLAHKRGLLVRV

Target: T1, MAO-B (Homo sapiens, UniProt P27338)
T1 construct: Autoradiography using [^18F]rasagiline on human brain slices from a healthy subject; from tissue; host or cells: human brain hemisphere cryosections (100 µm)
Assay: Autoradiography with [^18F]rasagiline on human brain sections, blocking with excess inhibitor
Type: binding
Conditions: excess (10 μM) of the inhibitor in the incubation solution
Method: Binding of the [^18F]rasagiline (compound of formula F) was investigated on human brain sections from normal subjects using a standard protocol.
In brief, whole brain hemispheres were cut at a 100 μm thickness in a Cryocut (Leica, Germany), thaw mounted onto gelatine glass slides and kept at −25° C. before use. Thereafter, the slides containing the regions of interest (e.g. hippocampus, thalamus) were removed and brought to room temperature. The sections were incubated with 0.2 MBq/mL [^18F] compound F in 50 mM TRIS/0.1% BSA (pH 7.4) with salts (120 mM NaCl, 5 mM KCl, 1 mM CaCl2, 1 mM MgCl2) for 90 min at room temperature and washed three times for 5 min each in 50 mM TRIS (pH 7.4). The sections were dipped once into ice cold distilled water, dried at room temperature and exposed to PhosphorImager plates (FUJI BAS 5000) overnight.
For detection of the specificity of the signals an excess (10 μM) of deprenyl, rasagiline (both for MAO-B) and pirlindole (for MAO-A), respectively, was used together with the ^18F labelled rasagiline (compound F).

## Cc1ccc2c(c1)c1c3n2CCNC3CCC1 (stereo not shown) [pirlindole]
  blocking of the [^18F]rasagiline (compound F) autoradiography signal: could not be blocked
